Assay results as given in ChEMBL document CHEMBL3112561, “Small molecule disruptors of the glucokinase-glucokinase regulatory protein interaction: 2. Leveraging structure-based drug design to identify analogues with improved pharmacokinetic profiles” (J Med Chem, 2014).

Biological target: T1, Glucokinase regulatory protein (Homo sapiens, UniProt Q14397)
T1 sequence (Q14397 whole entry): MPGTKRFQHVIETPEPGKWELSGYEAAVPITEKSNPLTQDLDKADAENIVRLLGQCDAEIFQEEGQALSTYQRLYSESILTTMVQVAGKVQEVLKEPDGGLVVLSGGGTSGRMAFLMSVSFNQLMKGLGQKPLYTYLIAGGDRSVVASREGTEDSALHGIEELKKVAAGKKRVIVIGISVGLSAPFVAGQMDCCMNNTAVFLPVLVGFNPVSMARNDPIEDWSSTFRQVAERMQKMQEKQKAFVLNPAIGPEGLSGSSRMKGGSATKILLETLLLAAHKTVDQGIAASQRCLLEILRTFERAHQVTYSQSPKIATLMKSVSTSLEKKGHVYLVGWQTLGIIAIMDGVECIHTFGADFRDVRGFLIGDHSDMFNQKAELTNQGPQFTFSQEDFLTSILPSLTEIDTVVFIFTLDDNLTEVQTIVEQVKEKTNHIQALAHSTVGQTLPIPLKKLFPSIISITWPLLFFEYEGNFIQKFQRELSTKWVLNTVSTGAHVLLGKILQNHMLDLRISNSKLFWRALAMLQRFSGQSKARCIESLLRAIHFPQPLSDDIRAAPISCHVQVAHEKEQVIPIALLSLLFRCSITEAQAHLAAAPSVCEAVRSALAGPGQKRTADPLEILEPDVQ
Assay: Inhibition of fluorescein-labeled human GK interaction with biotin-labeled human GKRP incubated for 20 mins prior to addition of fluorescein-labeled GK measured after 2 to 4 hrs by Alpha Screen assay

IC50 [nM]	SMILES
445	Nc1ccccc1S(=O)(=O)N1CCN(c2ccc(C(O)(C(F)(F)F)C(F)(F)F)cc2)CC1
87	Nc1ccc(S(=O)(=O)N2CCN(c3ccc(C(O)(C(F)(F)F)C(F)(F)F)cc3)CC2)cn1
316	Nc1ncc(S(=O)(=O)N2CCN(c3ccc(C(O)(C(F)(F)F)C(F)(F)F)cc3)CC2)cn1
